Source: US9629825B2, “Pharmaceutical composition comprising (1r,4r)-6′-fluoro-N,N-dimethyl-4-phenyl-4′,9′-dihydro-3′H-spiro[cyclohexane-1,1′-pyrano[3,4,b]indol]-4-amine and a gabapentinoid” (dated 2017)
“And” between values parts separate entries of the source, which are not always exact repeats. Equal values may be shown once. Read-outs that look alike come from different tables or passages of the source.

Tested on: male Sprague-Dawley rats with ligatures applied to the left L5/L6 spinal nerves (tactile allodynia at the ipsilateral paw)
Settings: n = 10, Mean SEM, first 0.0316 μg/kg (hemicitrate), second 0.316 mg/kg, combination 0.0316 μg/kg+0.316 mg/kg (ratio 1:10,000)

CN(C)[C@]1(c2ccccc2)CC[C@]2(CC1)OCCc1c3cc(F)ccc3[nH]c12
% MPE (Maximum possible effect), withdrawal threshold of the ipsi-lateral hind paw (30 min. after i.v. administration): 20.8 % MPE and 20.8 ± 12.4 % MPE
% MPE (Maximum possible effect), withdrawal threshold of the ipsi-lateral hind paw (60 min. after i.v. administration): 8.3 ± 10.7 % MPE
% MPE (Maximum possible effect), withdrawal threshold of the ipsi-lateral hind paw (180 min. after i.v. administration): −1.3 ± 6.0 % MPE
